# In PubChem BioAssay (EPA / NIEHS):
# By UniProt entry, the sequences of proteins in these tests, tags left out.
# UniProt P10415, whole entry: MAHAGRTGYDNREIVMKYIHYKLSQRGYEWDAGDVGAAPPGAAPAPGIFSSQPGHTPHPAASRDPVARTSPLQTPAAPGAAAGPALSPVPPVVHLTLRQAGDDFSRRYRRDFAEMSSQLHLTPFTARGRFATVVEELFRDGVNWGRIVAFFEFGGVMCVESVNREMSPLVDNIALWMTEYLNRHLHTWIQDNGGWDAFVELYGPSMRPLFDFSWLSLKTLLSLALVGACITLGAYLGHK
# UniProt P42574, whole entry: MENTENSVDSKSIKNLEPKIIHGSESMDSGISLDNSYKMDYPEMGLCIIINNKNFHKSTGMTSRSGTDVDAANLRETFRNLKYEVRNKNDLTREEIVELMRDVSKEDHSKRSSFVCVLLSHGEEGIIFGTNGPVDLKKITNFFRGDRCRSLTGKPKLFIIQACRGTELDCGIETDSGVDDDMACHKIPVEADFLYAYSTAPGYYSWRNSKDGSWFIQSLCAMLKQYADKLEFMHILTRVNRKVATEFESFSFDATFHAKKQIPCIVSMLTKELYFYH
# UniProt P33261, whole entry: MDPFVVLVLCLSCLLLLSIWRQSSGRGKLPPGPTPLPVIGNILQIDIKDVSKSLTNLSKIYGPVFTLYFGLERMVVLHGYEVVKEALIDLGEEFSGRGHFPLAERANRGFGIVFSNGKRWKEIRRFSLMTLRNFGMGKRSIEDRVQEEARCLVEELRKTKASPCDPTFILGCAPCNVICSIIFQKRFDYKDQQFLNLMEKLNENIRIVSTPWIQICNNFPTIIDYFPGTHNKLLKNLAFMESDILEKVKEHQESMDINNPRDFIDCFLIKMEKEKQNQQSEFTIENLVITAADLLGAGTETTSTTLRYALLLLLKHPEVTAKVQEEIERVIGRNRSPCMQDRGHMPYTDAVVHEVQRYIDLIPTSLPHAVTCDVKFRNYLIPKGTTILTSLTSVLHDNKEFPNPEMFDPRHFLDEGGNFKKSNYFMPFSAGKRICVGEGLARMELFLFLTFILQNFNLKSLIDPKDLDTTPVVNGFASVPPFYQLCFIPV
# UniProt P08684, whole entry: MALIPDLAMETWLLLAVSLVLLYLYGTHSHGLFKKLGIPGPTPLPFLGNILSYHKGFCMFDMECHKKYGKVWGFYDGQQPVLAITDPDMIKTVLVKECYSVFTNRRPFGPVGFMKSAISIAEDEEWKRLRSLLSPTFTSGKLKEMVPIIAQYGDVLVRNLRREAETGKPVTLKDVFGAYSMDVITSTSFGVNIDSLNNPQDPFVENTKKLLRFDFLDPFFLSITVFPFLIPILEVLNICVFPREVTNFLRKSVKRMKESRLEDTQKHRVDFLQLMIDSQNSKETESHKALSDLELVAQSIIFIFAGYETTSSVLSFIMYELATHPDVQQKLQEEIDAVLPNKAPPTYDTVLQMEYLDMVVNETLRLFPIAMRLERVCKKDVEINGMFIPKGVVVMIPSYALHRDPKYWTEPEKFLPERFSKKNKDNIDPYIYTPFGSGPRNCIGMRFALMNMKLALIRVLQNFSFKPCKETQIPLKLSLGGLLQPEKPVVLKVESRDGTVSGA
# UniProt P24462, whole entry: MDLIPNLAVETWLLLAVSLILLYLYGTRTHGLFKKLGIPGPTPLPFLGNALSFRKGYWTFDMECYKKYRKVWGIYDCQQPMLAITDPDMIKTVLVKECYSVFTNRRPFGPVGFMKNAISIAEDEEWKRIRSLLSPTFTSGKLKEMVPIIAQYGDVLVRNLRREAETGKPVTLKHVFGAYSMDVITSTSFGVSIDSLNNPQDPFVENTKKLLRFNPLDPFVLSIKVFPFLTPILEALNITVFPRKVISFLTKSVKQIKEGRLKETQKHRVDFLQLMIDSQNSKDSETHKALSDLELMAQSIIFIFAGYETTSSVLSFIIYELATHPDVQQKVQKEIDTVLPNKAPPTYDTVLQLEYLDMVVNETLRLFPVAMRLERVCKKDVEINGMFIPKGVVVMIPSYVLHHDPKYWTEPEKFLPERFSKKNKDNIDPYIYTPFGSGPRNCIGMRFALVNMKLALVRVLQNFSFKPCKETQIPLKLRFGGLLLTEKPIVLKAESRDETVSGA
# This is a selection; strong and weak results do not stand in their true shares. Calls of active or inactive are those of the source. The calls were made as follows: active = hit-call score of the fitted dose curve at least 0.9, where 1 is the maximum; inactive = score below 0.9.
# Legend:
# Details in all cases: actives raise or lower the signal; mRNA level, 48 h
# [1] = read-out: Apoptosis regulator Bcl-2 (Homo sapiens) (UniProt P10415); test: LTEA_HepaRG_BCL2: Life Technologies and Expression Analysis (LTEA) Assay for Bcl-2 gene using HepaRG (AID 2283475)
# Summary of the method: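 HepaRG, plated 48 h then switched to serum-free induction medium; dosed 48 h, 8 conc. (max 100 uM, half-log steps), duplicate, 0.5% DMSO. Lysis in RLT, RNA isolated, TaqMan qRT-PCR for BCL2; ACTB/GAPDH/POLR2A normalisation; bidirectional fit vs DMSO.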
# [2] = read-out: Bcl-2 (BID) gene, BID (gene 637); test: LTEA_HepaRG_BID: Life Technologies and Expression Analysis (LTEA) Assay for Bcl-2 (BID) gene using HepaRG (AID 2283476)
# Summary of the method: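 Transcript levels of BID, measured by qRT-PCR and normalized to three housekeeping genes, were fitted bidirectionally against DMSO controls. Cells were HepaRG, dosed 48 h at up to 100 uM.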
# Caspase-3 (Homo sapiens) = Caspase-3 (Homo sapiens) (UniProt P42574); test: LTEA_HepaRG_CASP3: Life Technologies and Expression Analysis (LTEA) Assay for cysteine-aspartic acid protease (CASP3) using HepaRG (AID 2283477)
# Summary of the method: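 Read-out is CASP3 mRNA level by TaqMan qRT-PCR in human HepaRG cells after 48 h chemical exposure. Eight half-log concentrations topping at 100 uM were tested in 0.5% DMSO; gain or loss was fitted relative to DMSO.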
# [3] = read-out: Cytochrome P450 (CYP24A1), CYP24A1 (gene 1591); test: LTEA_HepaRG_CYP24A1: Life Technologies and Expression Analysis (LTEA) Assay for Cytochrome P450 (CYP24A1) using HepaRG (AID 2283478)
# Summary of the method: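 HepaRG, 48 h chemical exposure, 8-pt half-log CRC from 100 uM, 0.5% DMSO vehicle, duplicates. Endpoint: CYP24A1 mRNA by Fluidigm TaqMan qRT-PCR, normalized ACTB/GAPDH/POLR2A; gain/loss fit vs DMSO.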
# [4] = read-out: Cytochrome P450 (CYP1A2), CYP1A2 (gene 1544); test: LTEA_HepaRG_CYP1A2: Life Technologies and Expression Analysis (LTEA) Assay for Cytochrome P450 (CYP1A2) using HepaRG (AID 2283479)
# Summary of the method: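 CYP1A2 transcript induction or loss, quantified by Fluidigm qRT-PCR against three housekeeping genes, was fitted bidirectionally against 0.5% DMSO controls. Human HepaRG cells received eight half-log concentrations from 100 uM over 48 h.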
# [5] = read-out: cysteine-aspartic acid protease (CASP8), CASP8 (gene 841); test: LTEA_HepaRG_CASP8: Life Technologies and Expression Analysis (LTEA) Assay for cysteine-aspartic acid protease (CASP8) using HepaRG (AID 2283480)
# Summary of the method: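 Differentiated human HepaRG cells, plated 48 h then switched to serum-free induction medium, were exposed in duplicate for 48 h to 8 half-log concentrations up to 100 uM in 0.5% DMSO. CASP8 mRNA was quantified by qRT-PCR, normalized to ACTB/GAPDH/POLR2A.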
# [6] = read-out: Cytochrome P450 (CYP2B6), CYP2B6 (gene 1555); test: LTEA_HepaRG_CYP2B6: Life Technologies and Expression Analysis (LTEA) Assay for Cytochrome P450 (CYP2B6) using HepaRG (AID 2283481)
# Summary of the method: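 HepaRG cells plated 48 h, switched to serum-free induction medium, then dosed 48 h (8 points, half-log from 100 uM, 0.5% DMSO). RNA isolated; CYP2B6 expression measured by qRT-PCR; gain or loss fitted relative to DMSO.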
# [7] = read-out: Cytochrome P450 2C19 (Homo sapiens) (UniProt P33261); test: LTEA_HepaRG_CYP2C19: Life Technologies and Expression Analysis (LTEA) Assay for CYP2C19 using HepaRG (AID 2283482)
# Summary of the method: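 Transcript levels of CYP2C19 were quantified by qRT-PCR after HepaRG cells were treated for 48 hours with test chemicals up to 100 uM (eight half-log concentrations, 0.5% DMSO vehicle). Gain or loss of signal was fitted relative to DMSO.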
# CYP2C8 (gene 1558) = test: LTEA_HepaRG_CYP2C8: Life Technologies and Expression Analysis (LTEA) Assay for CYP2C8 using HepaRG (AID 2283483)
# Summary of the method: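 Differentiated human HepaRG cells were exposed for 48 h in serum-free induction medium to eight half-log concentrations up to 100 uM in 0.5% DMSO, in duplicate. CYP2C8 mRNA was measured by TaqMan qRT-PCR, normalized to ACTB, GAPDH and POLR2A, and fitted bidirectionally against DMSO.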
# CYP2C9 (gene 1559) = test: LTEA_HepaRG_CYP2C9: Life Technologies and Expression Analysis (LTEA) Assay for CYP2C9 using HepaRG (AID 2283484)
# Summary of the method: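 Differentiated human HepaRG cells were exposed 48 h in serum-free induction medium to eight half-log concentrations up to 100 uM in 0.5% DMSO. CYP2C9 mRNA was measured by qRT-PCR, normalized to ACTB, GAPDH and POLR2A, and fitted bidirectionally against DMSO.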
# CYP2E1 (gene 1571) = test: LTEA_HepaRG_CYP2E1: Life Technologies and Expression Analysis (LTEA) Assay for CYP2E1 using HepaRG (AID 2283485)
# Summary of the method: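 Human liver line HepaRG, plated 48 h, then serum-free induction medium + chemical x 48 h; 8-pt CRC from 100 uM, half-log, 0.5% DMSO, n=2. Readout: CYP2E1 mRNA qRT-PCR vs ACTB/GAPDH/POLR2A; bidirectional fit vs DMSO.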
# CYP4A11 (gene 1579) = test: LTEA_HepaRG_CYP4A11: Life Technologies and Expression Analysis (LTEA) Assay for CYP4A11 using HepaRG (AID 2283486)
# Summary of the method: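 HepaRG, 48 h chem exposure, 8 conc (100 uM top, half-log), 0.5% DMSO vehicle; qRT-PCR readout, housekeeping-gene normalized; bidirectional curve fit vs DMSO baseline.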
# [8] = read-out: Cytochrome P450 3A4 (Homo sapiens) (UniProt P08684); test: LTEA_HepaRG_CYP3A4: Life Technologies and Expression Analysis (LTEA) Assay for CYP3A4 using HepaRG (AID 2283487)
# Summary of the method: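 Differentiated HepaRG cells, plated 48 h, then dosed 48 h in serum-free induction medium with 0.5% DMSO, 8 half-log concentrations up to 100 uM, duplicate. CYP3A4 mRNA by qRT-PCR, normalized to ACTB/GAPDH/POLR2A; bidirectional fit versus DMSO.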
# [9] = read-out: DNA damage-inducible transcript 3 (DDIT3), DDIT3 (gene 1649); test: LTEA_HepaRG_DDIT3: Life Technologies and Expression Analysis (LTEA) Assay for DNA damage-inducible transcript 3 (DDIT3) using HepaRG (AID 2283488)
# Summary of the method: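 HepaRG plated 48 h, switched to serum-free induction medium, dosed 48 h (100 uM top, half-log, 8 pts, 0.5% DMSO, n=2); RNA isolated; DDIT3 by qRT-PCR; bidirectional curve fit vs DMSO.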
# [10] = read-out: Pro-epidermal growth factor (Homo sapiens) (UniProt P01133); test: LTEA_HepaRG_EGF: Life Technologies and Expression Analysis (LTEA) Assay for Epidermal growth factor (EGF) using HepaRG (AID 2283489)
# Summary of the method: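 HepaRG, 48 h dosing, 100 uM top, half-log x8, 0.5% DMSO. Readout: TaqMan qRT-PCR (Fluidigm array), housekeeping-normalized. Gain or loss of signal fit vs DMSO.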
# [11] = read-out: Early growth response protein 1 (EGR1) transcription factor, EGR1 (gene 1958); test: LTEA_HepaRG_EGR1: Life Technologies and Expression Analysis (LTEA) Assay for Early growth response protein 1 (EGR1) transcription factor using HepaRG (AID 2283490)
# Summary of the method: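 Differentiated human HepaRG cells in serum-free induction medium were exposed in duplicate for 48 h to eight concentrations (top 100 uM, half-log steps) in 0.5% DMSO. EGR1 mRNA was quantified by qRT-PCR, normalized to ACTB, GAPDH and POLR2A, and fitted bidirectionally versus DMSO.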
# [12] = read-out: Ezrin (EZR), EZR (gene 7430); test: LTEA_HepaRG_EZR: Life Technologies and Expression Analysis (LTEA) Assay for Ezrin (EZR) using HepaRG (AID 2283491)
# Summary of the method: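 EZR transcript levels came from Fluidigm qRT-PCR and were normalized to three housekeeping genes after 48 h chemical exposure of HepaRG cells. Dosing used an 8-point half-log series with a 100 uM top concentration in 0.5% DMSO, tested in duplicate; both directions were fitted versus vehicle.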
# [13] = read-out: Cytochrome P450 3A7 (Homo sapiens) (UniProt P24462); test: LTEA_HepaRG_CYP3A7: Life Technologies and Expression Analysis (LTEA) Assay for CYP3A7 using HepaRG (AID 2283492)
# Summary of the method: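 Human HepaRG liver cells, 48 h post-plating, switched to serum-free induction medium and exposed in duplicate for 48 h. Dosing: 100 uM top, half-log dilutions, 8 points, 0.5% DMSO vehicle. Read-out: CYP3A7 mRNA, gain or loss fitted against DMSO baseline.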
# CYP3A5 (gene 1577) = test: LTEA_HepaRG_CYP3A5: Life Technologies and Expression Analysis (LTEA) Assay for CYP3A5 using HepaRG (AID 2283493)
# Summary of the method: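 HepaRG plated 48 h, switched to serum-free induction medium, chemicals added 48 h (max 100 uM, half-log, 0.5% DMSO). RNA isolated; CYP3A5 by TaqMan qRT-PCR. Gain/loss vs DMSO.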
# [14] = read-out: Fatty Acid-Binding Protein 1 (FABP1), FABP1 (gene 2168); test: LTEA_HepaRG_FABP1: Life Technologies and Expression Analysis (LTEA) Assay for Fatty Acid-Binding Protein 1 (FABP1) using HepaRG (AID 2283494)
# Summary of the method: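 Differentiated human HepaRG cells were exposed in duplicate for 48 h in serum-free induction medium to 8-point half-log concentration series topping at 100 uM in 0.5% DMSO. FABP1 mRNA measured by TaqMan qRT-PCR, normalized to ACTB/GAPDH/POLR2A; bidirectional fit versus DMSO.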
structure (smiles),measurement,setting,value
CC(C)OP(C)(=O)OC(C)C,outcome,[1],inactive
same,outcome,[2],inactive
same,outcome,Caspase-3 (Homo sapiens),inactive
same,outcome,[3],inactive
same,outcome,[4],inactive
same,outcome,[5],inactive
same,outcome,[6],inactive
same,outcome,[7],inactive
same,outcome,CYP2C8 (gene 1558),inactive
same,outcome,CYP2C9 (gene 1559),inactive
same,outcome,CYP2E1 (gene 1571),inactive
same,outcome,CYP4A11 (gene 1579),inactive
same,outcome,[8],inactive
same,outcome,[9],inactive
same,outcome,[10],inactive
same,outcome,[11],inactive
same,outcome,[12],inactive
same,outcome,[13],inactive
same,outcome,CYP3A5 (gene 1577),inactive
same,outcome,[14],inactive
Cc1cccc([N+](=O)[O-])c1[N+](=O)[O-],outcome,[1],inactive
same,outcome,[2],inactive
same,outcome,Caspase-3 (Homo sapiens),inactive
same,outcome,[3],inactive
same,outcome,[4],inactive
same,outcome,[5],inactive
same,AC50,[6],active: 11.6 µM
same,outcome,[7],inactive
same,outcome,CYP2C8 (gene 1558),inactive
same,outcome,CYP2C9 (gene 1559),inactive
same,outcome,CYP2E1 (gene 1571),inactive
same,outcome,CYP4A11 (gene 1579),inactive
same,outcome,[8],inactive
same,outcome,[9],inactive
same,outcome,[10],inactive
same,outcome,[11],inactive
same,outcome,[12],inactive
same,outcome,[13],inactive
same,outcome,CYP3A5 (gene 1577),inactive
same,outcome,[14],inactive
Cc1ccc([N+](=O)[O-])cc1[N+](=O)[O-],outcome,[1],inactive
same,outcome,[2],inactive
same,outcome,Caspase-3 (Homo sapiens),inactive
same,outcome,[3],inactive
same,AC50,[4],active: 23.2 µM
same,outcome,[5],inactive
same,AC50,[6],active: 32.2 µM
same,AC50,[7],active: 32.5 µM
same,outcome,CYP2C8 (gene 1558),inactive
same,outcome,CYP2C9 (gene 1559),inactive
same,outcome,CYP4A11 (gene 1579),inactive
same,AC50,[8],active: 30.8 µM
same,outcome,[9],inactive
same,outcome,[10],inactive
same,outcome,[11],inactive
same,outcome,[12],inactive
same,outcome,[13],inactive
same,outcome,CYP3A5 (gene 1577),inactive
same,outcome,[14],inactive
Cc1c([N+](=O)[O-])cccc1[N+](=O)[O-],outcome,[1],inactive
same,outcome,[2],inactive
same,outcome,Caspase-3 (Homo sapiens),inactive
same,outcome,[3],inactive
same,outcome,[4],inactive
same,outcome,[5],inactive
same,AC50,[6],active: 21.4 µM
same,outcome,[7],inactive
same,outcome,CYP2C8 (gene 1558),inactive
same,outcome,CYP2C9 (gene 1559),inactive
same,outcome,CYP2E1 (gene 1571),inactive
same,outcome,CYP4A11 (gene 1579),inactive
same,outcome,[9],inactive
same,outcome,[10],inactive
same,outcome,[11],inactive
same,outcome,[12],inactive
same,outcome,[13],inactive
same,outcome,CYP3A5 (gene 1577),inactive
same,outcome,[14],inactive
O=[N+]([O-])c1cccc([N+](=O)[O-])c1,outcome,[1],inactive
same,outcome,[2],inactive
same,outcome,Caspase-3 (Homo sapiens),inactive
same,outcome,[3],inactive
same,outcome,[4],inactive
same,outcome,[5],inactive
same,outcome,[6],inactive
same,outcome,[7],inactive
same,outcome,CYP2C8 (gene 1558),inactive
same,outcome,CYP2C9 (gene 1559),inactive
same,outcome,CYP2E1 (gene 1571),inactive
same,outcome,CYP4A11 (gene 1579),inactive
same,outcome,[8],inactive
same,outcome,[9],inactive
same,outcome,[10],inactive
same,outcome,[11],inactive
same,outcome,[12],inactive
same,outcome,[13],inactive
same,outcome,CYP3A5 (gene 1577),inactive
same,outcome,[14],inactive
